# Assay results taken from patent US8492329B2, “Bioactive peptides and methods of using same” (Compugen Ltd., priority 2007, dated 2013).
# Legend:
# LGR5 = target: T1, LGR5 (Homo sapiens, UniProt O75473); test: cAMP accumulation in CHO-K1 cells transiently transfected with LGR5; format: cell-based; conditions: 1 uM, pre-treatment with Forskolin, FIG. 3B
# T1 construct: expressed in transfected cells; host or cells: CHO-K1 (transient)
# T1 sequence (O75473 22-907): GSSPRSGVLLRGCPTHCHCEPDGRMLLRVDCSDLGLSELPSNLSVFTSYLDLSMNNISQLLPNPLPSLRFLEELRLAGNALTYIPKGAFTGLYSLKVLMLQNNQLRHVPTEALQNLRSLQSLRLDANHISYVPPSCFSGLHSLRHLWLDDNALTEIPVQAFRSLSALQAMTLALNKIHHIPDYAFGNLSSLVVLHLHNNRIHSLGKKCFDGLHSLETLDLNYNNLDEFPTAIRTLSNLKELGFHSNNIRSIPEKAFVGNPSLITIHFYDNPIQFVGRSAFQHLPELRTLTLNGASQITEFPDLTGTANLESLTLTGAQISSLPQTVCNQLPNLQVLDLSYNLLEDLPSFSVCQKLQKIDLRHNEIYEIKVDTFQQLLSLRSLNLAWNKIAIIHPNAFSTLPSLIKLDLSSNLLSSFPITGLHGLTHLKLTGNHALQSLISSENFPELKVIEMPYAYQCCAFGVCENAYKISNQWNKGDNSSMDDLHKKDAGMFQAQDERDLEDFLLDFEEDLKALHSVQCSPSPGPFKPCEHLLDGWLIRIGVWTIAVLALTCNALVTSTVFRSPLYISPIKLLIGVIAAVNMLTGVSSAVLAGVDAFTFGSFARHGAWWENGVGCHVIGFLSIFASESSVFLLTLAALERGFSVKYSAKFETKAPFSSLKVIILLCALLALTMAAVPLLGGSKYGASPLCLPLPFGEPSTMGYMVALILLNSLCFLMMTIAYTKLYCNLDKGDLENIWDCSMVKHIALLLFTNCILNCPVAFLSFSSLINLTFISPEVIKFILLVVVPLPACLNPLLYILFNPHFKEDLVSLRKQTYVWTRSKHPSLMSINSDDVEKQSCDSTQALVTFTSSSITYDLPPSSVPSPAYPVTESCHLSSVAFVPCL
# Method: [The procedure below names another target; the source says it served here with some conditions changed.] (§1) LGR7 (RXFP1) or LGR8 (RXFP2) were transiently transfected into CHO-K1 cells as follows: Cells (12 million) were plated into T75 flasks on the day preceding transfection. Cells were transfected with a GPCR DNA and Gα16 using a lipid technique according to the manufacturer's recommendation. Cells were transfected for 5 hours, then re-plated into 96-well dishes (60,000 cells per well) and grown overnight. Transfected cells were plated into 24 wells of a 96-well plate. Cells were pre-treated with 0.5 mM IBMX (stimulation buffer) for 10 min at 37° C., then stimulated with either a positive control (Relaxin 2) or a candidate peptide (for Gs functional examination), followed by stimulation or a preincubation with 10 μM forskolin (for Gi functional examination). […]
# (§2) The ability of Peptides to affect cAMP concentration was examined in CHO-K1 cells transiently transfected the GPCR's LGR4, LGR5, or LGR6 and treated with 1 uM of P59C13V (P59) (SEQ ID NO: 6), P74C13V (P74) ((SEQ ID NO: 10), or HCG (ACS) which was used as a positive control. cAMP accumulation in the cells was then measured as described above with (Gi) or without (Gs) pre-treatment with Forskolin.
# LGR4 = target: T2, LGR4 (Homo sapiens, UniProt Q9BXB1); test: cAMP accumulation in CHO-K1 cells transiently transfected with LGR4; format: cell-based; conditions: 1 uM, pre-treatment with Forskolin, FIG. 3C
# T2 construct: expressed in transfected cells; host or cells: CHO-K1 (transient)
# Method: [The procedure below names another target; the source says it served here with some conditions changed.] as §1, §2
substance,measurement,setting,value
HCG: HCG (ACS) which was used as a positive control [reference compound],Gi effect (decrease in cAMP accumulation),LGR5,No significant Gi activation
same,Gi effect (decrease in cAMP accumulation),LGR4,slight but significant Gi activation
